By UniProt entry, the sequences of proteins in these tests, tags left out. Residues count along the entry.
UniProt P00747, 97-580 limits assumed: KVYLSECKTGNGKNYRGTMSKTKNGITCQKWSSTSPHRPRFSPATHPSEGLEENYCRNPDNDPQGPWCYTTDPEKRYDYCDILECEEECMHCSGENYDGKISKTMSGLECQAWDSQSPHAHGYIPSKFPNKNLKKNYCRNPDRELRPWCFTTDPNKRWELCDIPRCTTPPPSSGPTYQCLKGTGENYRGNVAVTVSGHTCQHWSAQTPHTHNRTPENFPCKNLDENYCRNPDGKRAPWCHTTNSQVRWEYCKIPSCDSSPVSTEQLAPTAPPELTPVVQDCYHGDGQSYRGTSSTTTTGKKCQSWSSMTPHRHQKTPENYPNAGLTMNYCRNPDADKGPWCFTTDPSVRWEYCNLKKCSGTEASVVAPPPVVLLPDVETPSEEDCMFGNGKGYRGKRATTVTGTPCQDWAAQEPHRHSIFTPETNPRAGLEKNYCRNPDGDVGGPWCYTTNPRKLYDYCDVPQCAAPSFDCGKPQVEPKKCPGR
UniProt P00747, 581-810 limits assumed: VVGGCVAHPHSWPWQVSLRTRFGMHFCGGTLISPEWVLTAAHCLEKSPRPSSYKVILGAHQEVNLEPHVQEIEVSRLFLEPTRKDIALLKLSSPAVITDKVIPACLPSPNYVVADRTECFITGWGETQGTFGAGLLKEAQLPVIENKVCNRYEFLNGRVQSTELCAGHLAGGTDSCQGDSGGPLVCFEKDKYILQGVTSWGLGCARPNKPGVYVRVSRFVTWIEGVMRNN

In ChEMBL document CHEMBL1139552, “Naphthamidine urokinase plasminogen activator inhibitors with improved pharmacokinetic properties” (Bioorg Med Chem Lett, 2005):

Each compound was assayed against Plasminogen (Homo sapiens, UniProt P00747) (assay: Binding affinity value against plasmin).

How did the pKi turn out when N=C(N)c1ccc2cc(/C=C/c3ccccc3)ccc2c1 was run?
Its pKi is 5.92.

The compounds below were run against Urokinase-type plasminogen activator (Homo sapiens, UniProt P00749).

With N=C(N)c1ccc2cc(CCc3ccccc3)cc(Br)c2c1 as the compound, how does the pKi read?
Its pKi is 5.86.

How did the pKi turn out when N=C(N)c1ccc2cc(C3CC3c3ccccc3)cc(-c3ccoc3)c2c1 (centres undefined) was run?
The pKi was 6.70.

With N=C(N)c1ccc2cc(/C=C/c3ccccc3)ccc2c1 as the compound, how does the pKi read?
Its pKi is 5.92.

N=C(N)c1ccc2cc(C3CC3c3ccccc3)ccc2c1 (centres undefined) was tested. Which pKi did it give?
Its pKi is 5.88.

How did the pKi turn out when CC(C)C1=NCCc2ccc(C3CC3c3ccc4cc(C(=N)N)ccc4c3)cc21 (centres undefined) was run?
The pKi was 6.86.

N=C(N)c1ccc2cc(CCc3ccccc3)cc(Nc3ncccn3)c2c1 was tested. Which pKi did it give?
Its pKi is 7.33.

CC(C)C1=NCCc2ccc([C@@H]3CC3c3ccc4cc(C(=N)N)ccc4c3)cc21 (some centres undefined) was tested. Which pKi did it give?
Its pKi is 6.42.

With CC(C)C1=NCCc2ccc([C@H]3CC3c3ccc4cc(C(=N)N)ccc4c3)cc21 (some centres undefined) as the compound, how does the pKi read?
Its pKi is 7.19.

pKi: −log10 of the molar value.
